According to ChEMBL document CHEMBL4321856:

What was measured:
[1] = molecular target: T1, Delta-type opioid receptor (Rattus norvegicus, UniProt P33533); assay: Agonist activity at rat DOR expressed in CHO cell membranes assessed as stimulation of [35S]GTPgammaS binding incubated for 1 hr by liquid scintillation counting
[2] = molecular target: T2, Kappa-type opioid receptor (Homo sapiens, UniProt P41145); assay: Displacement of [3H]U69593 from human KOR expressed in CHO cell membranes incubated for 30 mins by liquid scintillation counting
[3] = molecular target: T2, Kappa-type opioid receptor; assay: Agonist activity at human KOR expressed in CHO cell membranes assessed as stimulation of [35S]GTPgammaS binding incubated for 1 hr by liquid scintillation counting
[4] = molecular target: Mu-type opioid receptor (Rattus norvegicus, UniProt P33535); assay: Displacement of [3H]DAMGO from rat MOR expressed in CHO cell membranes incubated for 30 mins by liquid scintillation counting
[5] = molecular target: T1, Delta-type opioid receptor; assay: Displacement of [3H]DPDPE from rat DOR expressed in CHO cell membranes incubated for 30 mins by liquid scintillation counting
[6] = test system: Mus musculus; assay: Antinociceptive activity in ip dosed Kunming mouse assessed as reduction in nociceptive response after 2 hrs by hot plate test
[7] = test system: Mus musculus; assay: Induction of sedation in Kunming mouse assessed as inhibition of novelty-induced locomotor activity at 2.7 mg/kg, ip treated for 2 hrs before placing animal into locomotor chambers and monitored for 30 mins; details: in vivo, 0.5 h
[8] = test system: Mus musculus; assay: Antinociceptive activity in ip dosed Kunming mouse assessed as reduction in nociceptive response after 2 hrs by acetic acid-induced abdominal constriction test
[9] = test system: Mus musculus; assay: Induction of sedation in Kunming mouse assessed as inhibition of novelty-induced locomotor activity at 0.3 mg/kg, ip treated for 2 hrs before placing animal into locomotor chambers and monitored for 30 mins; details: in vivo, 0.5 h
[10] = test system: Mus musculus; assay: Induction of sedation in Kunming mouse assessed as inhibition of novelty-induced locomotor activity at 5 mg/kg, ip treated for 30 mins before placing animal into locomotor chambers and monitored for 30 mins; details: in vivo, 0.5 h

Row | SMILES | Ki [2] | Ki [4] | Ki [5] | also measured
1 | COc1ccc2c3c1O[C@H]1[C@@]4(OC)CC[C@@]5(C[C@@H]4c4ccc(N)cc4)[C@@H](C2)N(CC2CC2)CC[C@]315 | 6.4 nM | 45.9 nM | 33.3 nM | EC50 [1]: 21.1 nM; EC50 [3]: 11.3 nM
2 | COc1ccc2c3c1O[C@H]1[C@@]4(OC)CC[C@@]5(C[C@@H]4c4ccc(N6CCN(C(C)=O)CC6)cc4)[C@@H](C2)N(CC2CC2)CC[C@]315 | 121 nM | 100 nM | 22 nM | 
3 | COc1ccc2c3c1O[C@H]1[C@@]4(OC)CC[C@@]5(C[C@@H]4c4ccc(NCC6CC6)cc4)[C@@H](C2)N(CC2CC2)CC[C@]315 | 19.5 nM | 115 nM | 87.2 nM | 
4 | COc1ccc2c3c1O[C@H]1[C@@]4(OC)CC[C@@]5(C[C@@H]4c4ccc(N6CCCC6)cc4)[C@@H](C2)N(CC2CC2)CC[C@]315 | 310 nM | 165 nM | 962 nM | 
5 | COc1ccc2c3c1O[C@H]1[C@@]4(OC)CC[C@@]5(C[C@@H]4c4ccc(NCCCN(C)C)cc4)[C@@H](C2)N(CC2CC2)CC[C@]315 | 58.6 nM | 64.2 nM | 1200 nM | 
6 | COc1ccc2c3c1O[C@H]1[C@@]4(OC)CC[C@@]5(C[C@@H]4c4ccc(N6CCNCC6)cc4)[C@@H](C2)N(CC2CC2)CC[C@]315 | 80 nM | 55.4 nM | 821 nM | 
7 | COc1ccc2c3c1O[C@H]1[C@@]4(OC)CC[C@@]5(C[C@@H]4c4ccc(N6CCN(CC7CC7)CC6)cc4)[C@@H](C2)N(CC2CC2)CC[C@]315 | 50.3 nM | 36.1 nM | 179 nM | 
8 | COc1ccc2c3c1O[C@H]1[C@@]4(OC)CC[C@@]5(C[C@@H]4c4ccc(N6CCN(S(=O)(=O)c7ccc(C)cc7)CC6)cc4)[C@@H](C2)N(CC2CC2)CC[C@]315 | 1550 nM | 500 nM | > 5000 nM | 
9 | CNc1ccc([C@H]2C[C@@]34CC[C@]2(OC)[C@@H]2Oc5c(OC)ccc6c5[C@@]23CCN(CC2CC2)[C@@H]4C6)cc1 | 20.3 nM | 71 nM | 94.7 nM | 
10 | COc1ccc2c3c1O[C@H]1[C@@]4(OC)CC[C@@]5(C[C@@H]4c4ccc(NCC(N)=O)cc4)[C@@H](C2)N(CC2CC2)CC[C@]315 | 16.1 nM | 40.5 nM | 57.3 nM | 
11 | CCNc1ccc([C@H]2C[C@@]34CC[C@]2(OC)[C@@H]2Oc5c(OC)ccc6c5[C@@]23CCN(CC2CC2)[C@@H]4C6)cc1 | 16.9 nM | 106 nM | 42.8 nM | 
12 | COc1ccc2c3c1O[C@H]1[C@@]4(OC)CC[C@@]5(C[C@@H]4c4ccc(/N=N/c6ccc(O)cc6)cc4)[C@@H](C2)N(CC2CC2)CC[C@]315 | 1590 nM | > 5000 nM | > 5000 nM | 
13 | CCOC(=O)CCNc1ccc([C@H]2C[C@@]34CC[C@]2(OC)[C@@H]2Oc5c(OC)ccc6c5[C@@]23CCN(CC2CC2)[C@@H]4C6)cc1 | 20.8 nM | 44.4 nM | 19.5 nM | 
14 | COc1ccc2c3c1O[C@H]1[C@@]4(OC)CC[C@@]5(C[C@@H]4c4ccc(N6CCN(C(=O)c7ccccc7)CC6)cc4)[C@@H](C2)N(CC2CC2)CC[C@]315 | 89 nM | > 5000 nM | 48.2 nM | 
15 | CCCNc1ccc([C@H]2C[C@@]34CC[C@]2(OC)[C@@H]2Oc5c(OC)ccc6c5[C@@]23CCN(CC2CC2)[C@@H]4C6)cc1 | 16.8 nM | 275 nM | 115 nM | 
16 | COc1ccc2c3c1O[C@H]1[C@@]4(OC)CC[C@@]5(C[C@@H]4c4ccc(NC(=O)c6ccccc6)cc4)[C@@H](C2)N(CC2CC2)CC[C@]315 | 0.47 nM | 321 nM | 134 nM | ED50 [6]: 0.2 mg/kg; Activity [7]: Toxic; EC50 [1]: 794 nM; ED50 [8]: 0.1 mg/kg; EC50 [3]: 2 nM; Activity [9]: Toxic
17 | CN(C(=O)Cc1ccc(Cl)c(Cl)c1)C1CCCCC1N1CCCC1 (configuration not stated) |  |  |  | Activity [10]: Toxic
